Test system: laser-induced thrombi in cremaster arterioles
Conditions: in words
Excerpt: A preferred animal model involves intravital microscopy of laser-induced thrombi. The method is described by Rosen et al., 2001, Am J Pathol 158, 1613–1622, which is incorporated herein by reference. Minor variations of that method were employed as described below.
Experimental mice are pre-anesthetized and surgically prepared. A tracheal tube is placed to facilitate breathing and the jugular vein is canulated to allow for maintenance of anesthetic and introduction of compound. The cremaster muscle is then exteriorized. The muscle is affixed over a glass slide, allowing illumination from below. […]
Thrombosis is initiated by damaging the vessel wall (of a 30 μm vessel) with a laser pulse from a MicroPoint LASER attached to the microscope. […] The recruitment of platelets to the thrombus is then monitored by the accumulation of (activated) Alexa 488-labeled platelets at the ablation site using fluorescence microscopy, and the process is recorded digitally. The method thus permits in vivo analysis of platelet activation as measured by platelet aggregation and thrombosis.
The degree of embolization in an untreated mouse can be quantified using software for image analysis, e.g., BioQuant True Color Windows (Biometrics, Nashville, Tenn.), as described in Rosen et al., 2001, supra. […]

Substance: 9-methylene-4-(alkyl)-2,3,4,9-tetrahydro-1H-cyclopenta(b)quinoline
- tolerability in mice: tolerated

Source: patent publication US7166612B2, “Methods for reducing platelet activation platelet aggregaton or thrombosis” (Beth Israel Deaconess Medical Center, priority 2001, dated 2007)
